{
  "source": "patent US11364285B2",
  "about": "“Methods, compositions, and molecular targets that exploit synergies and symbioses in the termite gut” (priority 2016, dated 2022)",
  "test_system": "host gut and protist/symbiont genes",
  "assay_type": "in vivo",
  "details": "48 h",
  "procedure": "After two days, a subset of ten termites was removed from each of the replicate colony treatments (20 total samples), cold-immobilized, surface-sterilized by a serial rinse in 0.3% sodium hypochlorite (1×) and sterilized water (2×), and dissected on Parafilm to collect digestive tracts, including salivary glands. Digestive tracts were transferred into RLA Lysis Buffer (Promega, Fitchburg, Wis., USA) and stored at −70° C. until RNA isolation. RNA extraction and cDNA synthesis was performed.\nExperiments were designed after MIAME guidelines. A type II microarray design was used with a common-reference strategy. The common reference consisted of a normalized blend of all RNA samples included in the experiment. This common reference was co-hybridized against each replicate sample on single microarrays. Dye swaps were performed between replicate samples and references to check for potential dye impacts on spot intensity. […] Specifically, such microarrays contained a mix of ˜14,500 cDNA oligonucleotides representing 10,500 host gut and protist/symbiont genes, including stereotypical immune response genes, thereby providing simultaneous assessments of host and protist gene expression. Reported analyses consisted of five pairwise comparisons to a common control as denoted by the numbers 1-5 in FIG. 4. […]",
  "data": [
    {"smiles": "O=[N+]([O-])NC1=NCCN1Cc1ccc(Cl)nc1", "note": "[I, imidacloprid]", "values": [
      {"measurement": "Fold change: cell surface leucine-rich repeat-containing protein", "value": 1.25}
    ]}
  ]
}
